# Data taken from patent US11484525B2 (priority 2015, dated 2022).
# By UniProt entry, the sequences of proteins in these tests, tags left out.
# UniProt P35372, whole entry: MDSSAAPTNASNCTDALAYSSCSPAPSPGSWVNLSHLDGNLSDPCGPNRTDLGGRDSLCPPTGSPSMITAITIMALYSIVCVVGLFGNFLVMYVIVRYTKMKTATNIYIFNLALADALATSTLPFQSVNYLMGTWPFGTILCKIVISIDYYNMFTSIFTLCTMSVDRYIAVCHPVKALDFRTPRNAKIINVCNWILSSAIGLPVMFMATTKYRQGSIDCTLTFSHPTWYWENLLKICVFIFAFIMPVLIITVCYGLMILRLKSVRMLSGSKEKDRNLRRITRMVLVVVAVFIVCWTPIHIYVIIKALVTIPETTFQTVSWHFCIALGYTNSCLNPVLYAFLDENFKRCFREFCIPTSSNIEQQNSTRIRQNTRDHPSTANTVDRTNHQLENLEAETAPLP
# Biological target: MOR (Homo sapiens (Human), UniProt P35372)
# Test: biochemical
# Assay type: binding
compound,measurement,value
CN(C)[C@H](CNC(=O)NCCc1cn(CCOCCOCCOCCOCCOCCN=[N+]=[N-])nn1)Cc1ccc(O)cc1 [DD 168],Ki,13 µM
